Target: T1, mTOR (Homo sapiens, UniProt P42345)
T1 construct: 2.5 μl of 0.6 μg/ml of mTOR Enzyme (Amgen) was added to rows 1-23
Experiment: mTOR LanthaScreen (TR-FRET, phosphorylation of 4EBP1)
Format: biochemical
Details: read-out: AA11016+++mTor_MA_IC50_IP
Procedure: The mTOR LanthaScreen is a TR-FRET assay measuring the phosphorylation of mTOR's substrate 4EBP1. 384 well compound plates were prepared containing 1 μl of compound per well starting at 5 mM and diluted 1:2 across the row, resulting in a 22 well serial dilution.
The assay was conducted on the PerkinElmer® FlexDrop PLUS. A 5 μl mix of 800 nM GFP-4E-BP1 (Invitrogen, PV4759) and 20 μM ATP (Amgen) was added to rows 1-24. 2.5 μl of 0.6 μg/ml of mTOR Enzyme (Amgen) was added to rows 1-23. 2.5 μl of assay buffer was added to row 24 for the low control. […] The final concentrations in the assay reagents were 400 nM GFP-4E-BP1, 10 μM of ATP and 0.15 μg/ml of mTOR enzyme. The compound, enzyme, and substrate incubate for 90 minutes.

Substance: mixture of ((4-(5-(3-(hydroxymethyl)-4-methoxyphenyl)-2-(1H-pyrazol-3-ylamino)-1H-benzimidazol-1-yl)-6-methyl-1,3,5-triazin-2-yl)amino)acetonitrile; and ((4-(6-(3-(hydroxymethyl)-4-methoxyphenyl)-2-(1H-pyrazol-3-ylamino)-1H-benzimidazol-1-yl)-6-methyl-1,3,5-triazin-2-yl)amino)acetonitrile [Cpd 126]
- IC50: 7.6 nM
